Amino acid sequences for entries named in this document (tags omitted). Residues count along the entry.
UniProt Q00960, 27-1482: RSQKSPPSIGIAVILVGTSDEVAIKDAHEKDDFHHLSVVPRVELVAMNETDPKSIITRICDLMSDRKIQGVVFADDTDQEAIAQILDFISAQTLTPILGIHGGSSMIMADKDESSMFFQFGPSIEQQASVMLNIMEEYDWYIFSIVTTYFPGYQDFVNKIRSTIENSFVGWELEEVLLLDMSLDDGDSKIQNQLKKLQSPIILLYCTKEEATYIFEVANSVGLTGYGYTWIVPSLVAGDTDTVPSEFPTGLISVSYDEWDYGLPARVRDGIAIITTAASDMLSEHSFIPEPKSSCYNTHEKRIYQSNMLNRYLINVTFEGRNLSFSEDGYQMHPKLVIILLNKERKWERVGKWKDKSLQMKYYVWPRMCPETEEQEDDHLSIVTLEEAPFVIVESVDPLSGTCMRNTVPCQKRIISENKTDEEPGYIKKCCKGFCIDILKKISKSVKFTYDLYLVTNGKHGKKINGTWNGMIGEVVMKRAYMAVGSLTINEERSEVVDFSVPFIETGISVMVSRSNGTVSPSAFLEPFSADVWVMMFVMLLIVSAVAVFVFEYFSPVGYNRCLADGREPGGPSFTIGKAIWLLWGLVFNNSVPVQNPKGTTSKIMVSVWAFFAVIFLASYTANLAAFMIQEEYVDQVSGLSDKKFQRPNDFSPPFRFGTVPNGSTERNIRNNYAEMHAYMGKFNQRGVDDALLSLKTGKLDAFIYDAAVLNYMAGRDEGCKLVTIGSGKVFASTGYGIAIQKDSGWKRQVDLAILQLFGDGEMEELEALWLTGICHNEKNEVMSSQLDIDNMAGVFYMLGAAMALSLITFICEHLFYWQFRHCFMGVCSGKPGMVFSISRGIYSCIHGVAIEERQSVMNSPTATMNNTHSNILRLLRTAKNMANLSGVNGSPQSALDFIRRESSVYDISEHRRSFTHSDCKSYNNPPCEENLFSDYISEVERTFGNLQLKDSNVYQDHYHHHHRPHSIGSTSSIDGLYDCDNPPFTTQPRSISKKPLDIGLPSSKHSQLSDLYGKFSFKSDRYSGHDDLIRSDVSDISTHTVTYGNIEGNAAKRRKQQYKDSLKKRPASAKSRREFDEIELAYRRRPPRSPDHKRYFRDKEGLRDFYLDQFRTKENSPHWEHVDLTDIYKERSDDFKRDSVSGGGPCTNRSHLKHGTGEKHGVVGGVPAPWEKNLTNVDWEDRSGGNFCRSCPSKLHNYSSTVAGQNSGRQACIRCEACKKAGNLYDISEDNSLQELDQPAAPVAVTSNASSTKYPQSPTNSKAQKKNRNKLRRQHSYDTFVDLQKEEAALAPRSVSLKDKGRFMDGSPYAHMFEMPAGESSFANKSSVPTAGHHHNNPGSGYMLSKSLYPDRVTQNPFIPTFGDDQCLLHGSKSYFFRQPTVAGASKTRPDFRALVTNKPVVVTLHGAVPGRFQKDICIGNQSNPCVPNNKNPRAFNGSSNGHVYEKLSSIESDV
UniProt Q62645, 28-1323: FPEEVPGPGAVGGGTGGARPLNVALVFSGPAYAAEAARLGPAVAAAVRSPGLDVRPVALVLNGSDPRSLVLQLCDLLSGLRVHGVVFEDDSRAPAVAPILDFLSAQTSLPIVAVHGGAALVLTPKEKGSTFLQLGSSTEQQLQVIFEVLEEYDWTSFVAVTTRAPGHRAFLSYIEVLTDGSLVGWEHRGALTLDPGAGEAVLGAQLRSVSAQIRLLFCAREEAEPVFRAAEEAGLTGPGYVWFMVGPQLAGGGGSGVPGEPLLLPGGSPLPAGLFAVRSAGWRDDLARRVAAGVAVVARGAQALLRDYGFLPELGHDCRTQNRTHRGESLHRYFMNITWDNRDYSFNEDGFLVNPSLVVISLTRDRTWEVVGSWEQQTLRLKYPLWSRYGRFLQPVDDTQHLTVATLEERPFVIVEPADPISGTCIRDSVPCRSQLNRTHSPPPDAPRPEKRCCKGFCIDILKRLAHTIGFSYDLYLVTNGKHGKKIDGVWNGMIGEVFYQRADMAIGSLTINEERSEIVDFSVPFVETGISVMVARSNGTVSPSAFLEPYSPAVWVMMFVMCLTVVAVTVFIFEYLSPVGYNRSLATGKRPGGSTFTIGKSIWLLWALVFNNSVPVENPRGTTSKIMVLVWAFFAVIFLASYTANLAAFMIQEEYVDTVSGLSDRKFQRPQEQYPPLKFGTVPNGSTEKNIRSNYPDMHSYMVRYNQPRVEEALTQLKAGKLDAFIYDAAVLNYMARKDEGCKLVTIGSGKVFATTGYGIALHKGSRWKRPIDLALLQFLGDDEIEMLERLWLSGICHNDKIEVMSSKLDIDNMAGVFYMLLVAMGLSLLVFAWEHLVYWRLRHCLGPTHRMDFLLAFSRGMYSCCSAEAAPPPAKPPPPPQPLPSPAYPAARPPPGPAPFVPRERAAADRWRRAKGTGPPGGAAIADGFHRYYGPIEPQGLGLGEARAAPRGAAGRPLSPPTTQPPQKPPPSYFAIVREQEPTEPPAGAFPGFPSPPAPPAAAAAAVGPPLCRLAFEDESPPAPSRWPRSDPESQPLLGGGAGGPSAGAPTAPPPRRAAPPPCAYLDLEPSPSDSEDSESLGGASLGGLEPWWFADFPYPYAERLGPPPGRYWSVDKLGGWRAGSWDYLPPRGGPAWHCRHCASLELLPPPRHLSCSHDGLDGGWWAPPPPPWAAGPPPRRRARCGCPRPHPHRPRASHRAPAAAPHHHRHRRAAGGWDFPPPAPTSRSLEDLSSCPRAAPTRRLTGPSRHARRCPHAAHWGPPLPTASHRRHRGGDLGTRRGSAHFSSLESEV

According to publication PMC6858497 (The Journal of physiology, 2019):

How the values were obtained:
Experiment in all cases: Two-electrode voltage-clamp recordings, Xenopus oocytes
Type in all cases: cell-based
Conditions in all cases: for IC50: IC50, channel block; for IC50 ratio (Mg2+/control): 1 mM Mg2+ versus control
[1] = molecular target: GluN1–1a/2B (Rattus norvegicus, UniProt P35439+Q00960)
[2] = molecular target: GluN1–1a/2D (Rattus norvegicus, UniProt P35439+Q62645)
[3] = molecular target: GluN1–1a/2BC1/2DC2 (Rattus norvegicus, UniProt P35439+Q00959+Q00960+Q62645, A876H/F846L/G856D/H848F/K857R/M851T/M860L/Q845K/R869K/V861L/V866F)
[4] = −20 mV, control (absence of Mg2+)
[5] = −40 mV, control (absence of Mg2+)
[6] = −60 mV, control (absence of Mg2+)

CC12CC3CC(C)(C1)CC(N)(C3)C2 [memantine]
IC50 ([1]; −20 mV, + 1 mM Mg2+): 9500 ± 600 nM
IC50 [1, 4]: 2700 ± 200 nM
IC50 ([1]; −40 mV, + 1 mM Mg2+): 12000 ± 2000 nM
IC50 [1, 5]: 1300 ± 100 nM
IC50 ([1]; −60 mV, + 1 mM Mg2+): 8900 ± 1500 nM
IC50 [1, 6]: 600 nM
IC50 ratio (Mg2+/control) ([1]; −20 mV): 3.5
IC50 ratio (Mg2+/control) ([1]; −40 mV): 9.2
IC50 ratio (Mg2+/control) ([1]; −60 mV): 14.8
IC50 ([2]; −20 mV, + 1 mM Mg2+): 1400 ± 100 nM
IC50 [2, 4]: 1100 ± 100 nM
IC50 ([2]; −40 mV, + 1 mM Mg2+): 1000 nM
IC50 [2, 5]: 700 nM
IC50 ([2]; −60 mV, + 1 mM Mg2+): 800 nM
IC50 [2, 6]: 400 nM
IC50 ratio (Mg2+/control) ([2]; −20 mV): 1.3
IC50 ratio (Mg2+/control) ([2]; −40 mV): 1.4
IC50 ratio (Mg2+/control) ([2]; −60 mV): 2.0
IC50 ([3]; −20 mV, + 1 mM Mg2+): 3200 ± 100 nM
IC50 [3, 4]: 2500 ± 400 nM
IC50 ([3]; −40 mV, + 1 mM Mg2+): 2600 ± 200 nM
IC50 [3, 5]: 1200 ± 100 nM
IC50 ([3]; −60 mV, + 1 mM Mg2+): 2600 ± 300 nM
IC50 [3, 6]: 600 nM
IC50 ratio (Mg2+/control) ([3]; −20 mV): 1.3
IC50 ratio (Mg2+/control) ([3]; −40 mV): 2.2
IC50 ratio (Mg2+/control) ([3]; −60 mV): 4.3
